Experimental findings from publication PMC4063695, “Design of Embedded-Hybrid Antimicrobial Peptides with Enhanced Cell Selectivity and Anti-Biofilm Activity” (PLoS ONE, 2014) are described below.

The series deals with human red blood cells (hRBC). Description: Hemolytic activity. It counts as cell-based. The conditions noted are these: minimum concentration that caused 5% hemolysis of hRBC (footnote); 1% hRBC in PBS pH 7.4, 1 h, 37°C, OD 492 nm. The protocol: The amount of released hemoglobin by the lysis of erythrocytes was measured for hemolytic activity of peptides. Human erythrocytes were obtained from a healthy donor with written informed consent. The experimental protocol was reviewed and approved by the ethics committee of the Northeast Agricultural University Hospital. The measurement was based on a previously described method. The fresh hRBCs were washed three times by centrifugation (1000 g, 5 min, 4°C) in PBS (pH 7.4), and then resuspended in PBS to obtain the erythrocyte with a dilution of approximately 1% (v/v). Then, 50 µL of hRBCs solution was incubated with 50 µL of different concentrations of the peptides dissolved in PBS for 1 h at 37°C, before centrifugation (1000 g, 5 min, 4°C) again. The absorbance of the supernatants was measured at optical density (OD) 492 nm. […] The control samples for 0% and 100% hemolysis consisted of hRBCs in PBS (Ablank) only and in 0.1% Triton X-100 (Atriton), respectively. The percentage of hemolysis was calculated according to the following equation: [drawing 3]

SMILES strings stand for the structures.

Regarding `CC[C@H](C)[C@H](NC(=O)CN)C(=O)NCC(=O)N[C@@H](C)C(=O)N[C@H](C(=O)N[C@@H](CC(C)C)C(=O)N[C@@H](CCCCN)C(=O)N[C@H](C(=O)N[C@@H](CC(C)C)C(=O)N[C@H](C(=O)N[C@H](C(=O)NCC(=O)N[C@@H](CC(C)C)C(=O)N1CCC[C@H]1C(=O)N[C@@H](C)C(=O)N[C@@H](CC(C)C)C(=O)N[C@H](C(=O)N[C@@H](CO)C(=O)N[C@@H](Cc1c[nH]c2ccccc12)C(=O)N[C@H](C(=O)N[C@@H](CCCCN)C(=O)N[C@@H](CCCNC(=N)N)C(=O)N[C@@H](CCCCN)C(=O)N[C@@H](CCCNC(=N)N)C(=O)N[C@@H](CCC(N)=O)C(=O)N[C@@H](CCC(N)=O)C(N)=O)[C@@H](C)CC)[C@@H](C)CC)[C@@H](C)O)[C@@H](C)O)C(C)C)C(C)C` [ME26, melittin, reference compound], the MHC turned out to be 0.25 µM.
